Results as given in article PMC3860265 (Journal of molecular biology, 2013).

Sequences of proteins named here, by UniProt entry; tags and fusion partners are left off. A change or cut given only in a name is not applied to a line headed by its entry.
UniProt P22518: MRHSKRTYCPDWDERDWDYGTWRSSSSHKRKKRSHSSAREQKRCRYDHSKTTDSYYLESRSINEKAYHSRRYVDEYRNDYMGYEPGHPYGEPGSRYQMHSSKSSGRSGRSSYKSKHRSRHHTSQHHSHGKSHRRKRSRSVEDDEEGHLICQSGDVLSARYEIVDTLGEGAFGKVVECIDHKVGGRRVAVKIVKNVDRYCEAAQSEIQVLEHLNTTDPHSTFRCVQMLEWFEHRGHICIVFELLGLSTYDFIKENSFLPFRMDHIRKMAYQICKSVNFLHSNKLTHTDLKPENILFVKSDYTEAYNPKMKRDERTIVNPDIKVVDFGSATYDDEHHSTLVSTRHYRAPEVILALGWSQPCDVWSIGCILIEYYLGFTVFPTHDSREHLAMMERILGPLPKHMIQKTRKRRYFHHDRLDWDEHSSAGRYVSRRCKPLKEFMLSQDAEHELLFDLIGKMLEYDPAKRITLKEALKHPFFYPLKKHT

Molecular target: CLK1 (mouse, UniProt P22518 1-483)
Assay: kinase competition assay

B1: SR(RRM2) (domain or fragment)
chain: NRVVVSGLPPSGSWQDLKDHMREAGDVCYADVYRDGTGVVEFVRKEDMTYAVRKLDNTKFRSHEGETAYIRVKVD
Q: With B1 as the binder, how does the Ki read?
A: 0.12 ± 0.02 µM
